Laboratory results published in BindingDB's records for 20189400.

Amino acid sequences for entries named in this document (tags omitted). Residues count along the entry.
UniProt P22303, 32-614 limits assumed: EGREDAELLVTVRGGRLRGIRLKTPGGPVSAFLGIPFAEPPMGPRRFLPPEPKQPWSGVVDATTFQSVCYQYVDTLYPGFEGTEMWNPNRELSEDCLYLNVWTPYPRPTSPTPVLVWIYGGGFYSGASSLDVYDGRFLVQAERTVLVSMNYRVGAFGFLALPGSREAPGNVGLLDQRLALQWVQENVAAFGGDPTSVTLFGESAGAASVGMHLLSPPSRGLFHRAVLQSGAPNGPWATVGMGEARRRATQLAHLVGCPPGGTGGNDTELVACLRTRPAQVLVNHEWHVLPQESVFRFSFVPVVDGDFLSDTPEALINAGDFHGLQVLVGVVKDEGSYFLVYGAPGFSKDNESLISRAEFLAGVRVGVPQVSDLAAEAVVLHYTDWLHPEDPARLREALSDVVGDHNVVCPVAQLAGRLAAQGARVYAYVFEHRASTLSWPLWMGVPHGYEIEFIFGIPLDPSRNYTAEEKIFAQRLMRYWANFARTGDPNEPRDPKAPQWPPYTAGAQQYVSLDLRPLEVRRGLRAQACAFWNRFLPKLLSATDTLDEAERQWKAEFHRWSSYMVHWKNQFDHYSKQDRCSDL

Target: Acetylcholinesterase (Homo sapiens, UniProt P22303)
Experiment: Inhibition of AChE by modified Ellman's spectrophotometric method

SMILES: CO[P@]1(=O)OC[C@H]2COC(=O)C2=C(C)O1
- IC50: 800 pM
